Results: US6825348B2, “Antiviral compounds” (Academia Sinica, priority 2002, dated 2004)

Tested on: Spleen phosphodiesterase
Conditions: pH 6.5, 37° C., 8 h

## 9-(β-D-furanosyl)adenine-3′-[[1-(adenin-7-yl-ethoxy)methyl]phosphonate]
  yield of 20 with spleen phosphodiesterase: 60%
  yield of adenosine with spleen phosphodiesterase: 40%
